By UniProt entry, the sequences of proteins in these tests, tags left out. Residues count along the entry.
UniProt P14416, 1-414 isoform 2: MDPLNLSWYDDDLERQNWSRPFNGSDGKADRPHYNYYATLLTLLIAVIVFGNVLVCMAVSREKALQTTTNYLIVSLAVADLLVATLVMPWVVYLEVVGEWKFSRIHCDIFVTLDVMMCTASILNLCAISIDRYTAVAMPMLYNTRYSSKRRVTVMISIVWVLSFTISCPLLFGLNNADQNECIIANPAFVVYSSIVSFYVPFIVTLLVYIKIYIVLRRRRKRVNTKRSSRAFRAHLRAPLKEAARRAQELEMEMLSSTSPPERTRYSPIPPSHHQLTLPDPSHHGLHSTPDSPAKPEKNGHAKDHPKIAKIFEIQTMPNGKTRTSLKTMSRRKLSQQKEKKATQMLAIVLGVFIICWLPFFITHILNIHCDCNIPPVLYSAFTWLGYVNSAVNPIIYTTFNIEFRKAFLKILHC
UniProt P41143, whole entry partner: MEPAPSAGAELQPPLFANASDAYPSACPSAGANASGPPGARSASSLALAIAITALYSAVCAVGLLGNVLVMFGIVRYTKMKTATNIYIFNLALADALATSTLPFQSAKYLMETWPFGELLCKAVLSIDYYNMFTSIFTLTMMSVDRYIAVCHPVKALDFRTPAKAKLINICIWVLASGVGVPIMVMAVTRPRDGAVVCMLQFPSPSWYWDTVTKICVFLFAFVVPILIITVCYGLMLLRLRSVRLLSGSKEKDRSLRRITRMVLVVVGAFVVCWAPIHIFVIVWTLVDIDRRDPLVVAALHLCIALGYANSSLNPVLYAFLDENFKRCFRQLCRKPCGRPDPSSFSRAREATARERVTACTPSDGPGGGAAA

In US8697372B2, “Method for determining the binding of a given compound to a membrane receptor” (CIS Bio International, priority 2009, dated 2014):

Molecular target: Dopamine D2 receptor implicated in the heterodimer with Delta Opioid (Homo sapiens, UniProt P14416)
Settings: 3 nM red antagonist of the dopamine D2 receptor, Delta opioid receptor labeled with SNAP-Lumi4Tb, HEK293T cells, FIG. 11

Structure (SMILES)	Competition with the fluorescent reference ligand and binding to the heterodimers
CCCN(CCc1ccccc1)C1CCc2c(O)cccc2C1 (centres unmarked) [PPHT]	compete with the fluorescent reference ligand and bind to the heterodimers
CCN1CCC[C@H]1CNC(=O)c1cc(S(N)(=O)=O)ccc1OC [Sulpiride, (S)-(−)-Sulpiride]	compete with the fluorescent reference ligand and bind to the heterodimers
